Source: US20090264470A1 (priority 2006, published 2009)

Assay: Acute administration: wet mash and food intake and 24 h body weight in lean male C57BL/6J mice
Format: in vivo, mouse
Settings: dosed alone per the protocol; less than with the bupropion combinations
Procedure: The goal of this study was to investigate the effects of various ratios of bupropion:(R)-norfluoxetine on body weight and food and water intake in male C57BL/6J mice habituated to the daily presentation of a palatable wet mash diet. Rimonabant was used as a reference compound. Animals were maintained on normal-phase lighting. Test compounds were administered orally and measurements were made over the following 24 hours. All experiments included appropriate vehicle-treated control groups.
Sixty-two male C57BL/6J mice (weight range 20-25 g) were ordered from Harlan UK, Bicester, UK. The mice were individually housed in polypropylene cages at a temperature of 21±4° C. and 55%±20% humidity. […]
Typically an acute study was run each week with each study containing 60 animals. […] Animals were weighed and 2 h wet mash intake was calculated (to the nearest 0.1 g). […]
Drug administration occurred 60 minutes before the presentation of ‘wet mash’ which was at approximately 09:30 am. […] The mash was replaced with a fresh quantity of wet mash at the 4 hour time point. […] Wet mash was replaced with a known quantity of standard pellets at the 6 hour time point. […] Food and water intakes of the different groups of animals were measured concurrently. The animals were monitored at each reading and any overt drug-induced behavioural effects were recorded. […]

## NCC[C@@H](Oc1ccc(C(F)(F)F)cc1)c1ccccc1.O=C(O)C(O)C(O)C(=O)O [(R)-Norfluoxetine (D)-tartrate, (R)-norfluoxetine (D)-tartrate]
  effect on weight gain: reduction
  effect on wet mash intake: reduction
